By UniProt entry, the sequences of proteins in these tests, tags left out.
UniProt Q7L0J3, whole entry: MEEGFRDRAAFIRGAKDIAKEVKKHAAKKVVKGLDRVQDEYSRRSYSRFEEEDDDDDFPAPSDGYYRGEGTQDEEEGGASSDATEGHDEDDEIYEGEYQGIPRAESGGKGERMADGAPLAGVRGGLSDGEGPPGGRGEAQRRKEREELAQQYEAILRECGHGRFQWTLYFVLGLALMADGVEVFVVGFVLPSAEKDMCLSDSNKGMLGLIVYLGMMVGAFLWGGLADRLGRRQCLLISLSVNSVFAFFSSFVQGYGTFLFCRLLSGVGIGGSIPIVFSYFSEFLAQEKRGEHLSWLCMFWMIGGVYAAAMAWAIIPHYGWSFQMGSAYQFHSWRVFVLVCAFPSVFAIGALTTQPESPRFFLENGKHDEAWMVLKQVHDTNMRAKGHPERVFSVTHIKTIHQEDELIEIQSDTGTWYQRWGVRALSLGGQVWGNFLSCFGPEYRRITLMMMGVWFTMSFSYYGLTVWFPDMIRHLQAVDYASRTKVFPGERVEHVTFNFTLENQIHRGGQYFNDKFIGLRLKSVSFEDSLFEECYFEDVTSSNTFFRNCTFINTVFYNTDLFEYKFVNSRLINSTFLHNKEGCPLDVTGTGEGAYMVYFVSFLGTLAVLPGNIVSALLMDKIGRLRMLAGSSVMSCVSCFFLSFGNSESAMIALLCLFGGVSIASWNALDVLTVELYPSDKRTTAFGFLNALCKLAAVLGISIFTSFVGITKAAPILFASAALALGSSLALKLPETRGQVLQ

According to publication PMC12663137 (Nature Communications, 2025):

Molecular target: T1, SV2AWT (Homo sapiens, UniProt Q7L0J3)
T1 construct: expressed in transfected cells; host or cells: HEK293 (ATCC CRL-1573), crude membranes
Assay: Competitive displacement of 10 nM 3H-UCB-J, SV2AWT membranes (Fig. 1A)
Conditions: read-out: Binding of 3H-UCB-J (%), SV2A_WT; Log [Levetiracetam] (M) -4.523
Method: Ligand binding studies were carried out using crude membranes prepared from HEK293 cells (ATCC, CRL-1573) overexpressing mVenus-SV2AWT or SV2AEM. Membranes were prepared either from transiently transfected cells or from baculovirus-infected cells as described previously. Cells were washed with DPBS (Ca^2+ and Mg^2+ free), followed by resuspending in cold SH buffer (10 mM HEPES-Tris pH 7.4, 320 mM sucrose) containing protease inhibitor cocktail (MedChemExpress) to a density of 10^7 cells/ml. This cell suspension was homogenized by passing through a bead homogenizer (Isobiotec) with 10-micron clearance bead on ice. The lysate was then centrifuged at 4000 × g for 5 min at 4 °C, and the supernatant was aliquoted, frozen in liquid nitrogen, and stored at −80 °C. The mVenus fluorescence estimated using fluorescence size-exclusion chromatography (FSEC) was used to normalize expression levels of mVenus-SV2A mutants studied as detailed previously. For all binding studies, membranes containing […] protein (estimated by BCA method) per reaction were used.
To obtain dose-response curves of studied SV2A ligands, membranes diluted in 0.2 ml binding buffer (50 mM Tris-Cl, pH 7.4, and 2 mM MgCl2) were incubated with indicated concentrations of ligands for 30 min at 4 °C. […] Radioactivity was monitored in MicroBeta2 plate counter (Revvity). […]

SMILES: CC[C@@H](C(N)=O)N1CCCC1=O [levetiracetam]
- remaining activity at 30 µM: 42.4%
